Drawing on US20250197842A1, “IMPROVING ENZYMATIC CHANNELING EFFICIENCY VIA MIXED NANOPARTICLE SCAFFOLDS WITHIN SELF-ASSEMBLED NANOPARTICLE ENZYME CLUSTERS” (The Government of the United States of America, as …, priority 2023, published 2025), this text covers Km and Vmax for 1 protein.

Substrate in the data set: C=C(OP(=O)(O)O)C(=O)O
In words: purified protein, by the assay type. Particulars: other: free enzyme (ratio 0); 2.5 nM PykA; apparent; pH 8.0.

B1: E. coli BL21(DE3) pyruvate kinase PykA (EC 2.7.1.40), N-terminal (His)6, SEQ ID NO 1, free in solution (Escherichia coli K-12) (protein)
chain: MGSSHHHHHHSSGLVPRGSHMSRRLRRTKIVTTLGPATDRDNNLEKVIAAGANVVRMNFSHGSPEDHKMRADKVREIAAKLGRHVAILGDLQGPKIRVSTFKEGKVFLNIGDKFLLDANLGKGEGDKEKVGIDYKGLPADVVPGDILLLDDGRVQLKVLEVQGMKVFTEVTVGGPLSNNKGINKLGGGLSAEALTEKDKADIKTAALIGVDYLAVSFPRCGEDLNYARRLARDAGCDAKIVAKVERAEAVCSQDAMDDIILASDVVMVARGDLGVEIGDPELVGIQKALIRRARQLNRAVITATQMMESMITNPMPTRAEVMDVANAVLDGTDAVMLSAETAAGQYPSETVAAMARVCLGAEKIPSINVSKHRLDVQFDNVEEAIAMSAMYAANHLKGVTAIITMTESGRTALMTSRISSGLPIFAMSRHERTLNLTALYRGVTPVHFDSANDGVAAASEAVNLLRDKGYLMSGDLVIVTQGDVMSTVGSTNTTRILTVE
Regarding B1, the Km amounted to 1250 ± 100 µM and the Vmax worked out at 3.78 µM/min.

The Km is the substrate concentration at which the rate is half of its maximum. A word on the Vmax: it is the rate approached at saturating substrate.
